# Measurements reported in PubChem BioAssay AID493131 (Broad Institute, 2011).
# Protein sequences, listed by entry. Tags and fused reporters are not part of them. Lines headed by an entry give the natural chain unless they say otherwise; changes in a name come on top.
# UniProt P13346: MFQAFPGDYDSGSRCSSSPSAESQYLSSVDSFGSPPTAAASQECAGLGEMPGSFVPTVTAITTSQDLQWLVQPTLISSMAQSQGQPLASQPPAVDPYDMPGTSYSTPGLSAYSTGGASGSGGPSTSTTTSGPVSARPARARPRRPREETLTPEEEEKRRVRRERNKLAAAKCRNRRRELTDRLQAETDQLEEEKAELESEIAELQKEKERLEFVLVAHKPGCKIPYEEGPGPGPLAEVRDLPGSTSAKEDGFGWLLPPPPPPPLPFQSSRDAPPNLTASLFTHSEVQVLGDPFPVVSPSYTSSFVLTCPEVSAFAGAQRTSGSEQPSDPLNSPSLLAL
# The entries are a selection whose mix differs from that of the whole data set. Calls of active or inactive are those of the source.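 Rule for the calls: active = mean activation above about 17%, with every replicate also reaching it (limit read from the data, passing the limit was not always enough); inconclusive = only one of the two conditions met; inactive = the rest.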
# Molecular target: Protein FosB (Mus musculus) (UniProt P13346)
# Test: activators of delta FosB homodimer, primary screen, biochemical, fluorescence polarization, TAMRA-CDK5 oligo, single point (AID 493131);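 note: fluorescence polarization rise as delta FosB binds a TAMRA Cdk5 AP-1 oligo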
# Conditions: purified delta FosB, at 25 µM, stronger effect = higher value, percent of positive-control signal above neutral wells
row,SMILES,activation
1,O=P1(Nc2ccc(Br)cn2)COc2ccccc2OC1,inactive: 3.69%
2,NS(=O)(=O)c1cccc(NC(=O)COC(=O)C(O)(c2ccccc2)c2ccccc2)c1,inactive: -6.93%
3,O=[As](O)(c1cccs1)c1cccs1,inactive: 4.54%
4,Cc1ccc(OCC(=O)OC2CN3CCC2CC3)cc1 (stereo not given),inactive: 2.91%
5,CC1CCC(C(C)C)C(OP(=O)(Nc2ccccn2)c2ccccc2)C1 (stereo not given),inactive: -10.9%
6,Cc1ccc(C(=O)OC2CN3CCC2CC3)cc1 (stereo not given),inactive: 2.12%
7,Cc1nn(-c2ccccc2)c2c1P(=O)(N1CCOCC1)N(C)C(c1ccccc1)=N2 (stereo not given),inactive: -3.42%
8,CN(C)C1(CNC(=O)c2ccc(S(C)(=O)=O)cc2)CCCCC1,inactive: -0.716%
9,CCCC1OP(=O)(Nc2ccccc2)OCC1CC (stereo not given),inactive: -0.914%
10,O=C(/C=C/c1ccccc1)OC1CN2CCC1CC2 (stereo not given),inactive: 4.46%
11,COc1ccccc1CNC(=O)COC(=O)C(O)(c1ccccc1)c1ccccc1,inactive: 4.84%
12,CC(C)/C=N\N=C(\N)N[N+](=O)[O-],inactive: -3.19%
13,CC1(CBr)Cn2c(nc3ccccc3c2=O)S1 (stereo not given),inactive: 1.02%
14,CCOP(=O)(NC(=NC(C)c1ccccc1)NC(C)c1ccccc1)OCC (stereo not given),inactive: -16%
15,O=P1(Nc2ccccn2)COc2ccccc2OC1,inactive: -0.852%
16,CCC1=CC2Cc3nc4ccc(Cl)cc4c(N)c3C(C1)C2 (stereo not given),active: 21.1%
17,CCOP(=O)(Nc1ccc(C)cn1)OCC,inactive: 2%
18,CC(C)(C)C(=O)NC(Sc1ncccn1)C(Cl)(Cl)Cl (stereo not given),inactive: -5.3%
19,Clc1n[nH]nc1-c1nn[nH][15n]1,inactive: -0.458%
20,CC(C)C(=O)NC(Sc1ccccc1)C(Cl)(Cl)Cl (stereo not given),inactive: -1.15%
21,O=P(Nc1nccs1)(c1ccccc1)c1ccccc1,inactive: -0.631%
22,c1nnnn1CCn1cnnn1,inactive: -0.0765%

row,SMILES,activation
1,O=[As](O)(c1ccccc1)c1ccc(O)cc1,inactive: -7.34%
2,O=[N+]([O-])c1ccc(O)c(/C=N/Nc2ccc([N+](=O)[O-])cc2[N+](=O)[O-])c1,inactive: -3.91%
3,O=[N+]([O-])c1ncn(CCn2cnc([N+](=O)[O-])n2)n1,inactive: -5.08%
4,CC(=O)NC(SC(=S)N(C)C)C(Cl)(Cl)Cl (stereo not given),inactive: -0.189%
5,O=C(OC1CN2CCC1CC2)c1cccc(Cl)c1 (stereo not given),inactive: -7.42%
6,Nc1ccc([As](=O)(O)c2ccc([N+](=O)[O-])cc2)cc1,inactive: -6.48%
7,C(Cc1nn[nH]n1)Cc1nn[nH]n1,inactive: 7.93%
8,O=P(Nc1ccccn1)(c1ccc(Br)cc1)c1ccc(Br)cc1,inactive: -7.42%
9,CN(C)C1(CNC(=O)c2ccc(Cl)c(S(N)(=O)=O)c2)CCCCC1,inactive: 4.17%
10,COc1ccc(N)c([N+](=O)[O-])c1[N+](=O)[O-],inactive: -5.06%
11,C[C@H]1OP(=O)(Oc2ccccc2)[C@H](O)[C@H](O)[C@H]1N=[N+]=[N-] (stereo not given in full),inactive: 2.11%
12,O=P(Nc1nc2ccccc2s1)(c1ccccc1)c1ccccc1,inactive: -7.33%
13,CCC(=O)N1C2C3N(C(=O)CC)C1C1N(C(=O)CC)C(C(N1C(=O)CC)N3C(=O)CC)N2C(=O)CC,inactive: -0.682%
14,O=C(OC1CN2CCC1CC2)c1ccccc1 (stereo not given),inactive: 4.5%
15,Cc1ccc(OP(=O)(Nc2ccccn2)Oc2ccc(C)cc2)cc1,inactive: 0.939%
16,CC(=O)NC(SC(=S)N(CC(C)C)CC(C)C)C(Cl)(Cl)Cl (stereo not given),inactive: 0.758%
17,COC(=O)c1cc2c(s1)N=C(c1ccccc1)N(C)P2(=O)N1CCOCC1 (stereo not given),inactive: -3.88%
18,CN(C)C(=O)Oc1noc2ccccc12,inactive: -5.65%
19,O=c1c2cc([N+](=O)[O-])ccc2[nH]c2c([N+](=O)[O-])cc([N+](=O)[O-])cc12,inactive: -1.16%
20,Cc1ccccc1OP(=O)(Nc1ccccn1)Oc1ccccc1C,inactive: -9.71%
21,CC(NC(=O)COC(=O)C(O)(c1ccccc1)c1ccccc1)c1ccccc1 (stereo not given),inactive: -13.5%
22,Cc1ccc(NP(=O)(Oc2cccc(C)c2)Oc2cccc(C)c2)nc1,inactive: -11.6%

row,SMILES,activation
1,c1ccc(-c2nn[nH]n2)c(-c2nn[nH]n2)c1,inactive: 1.98%
2,CCNC(=S)/N=C(\N)N[N+](=O)[O-],inactive: -8.77%
3,O=C(NC1CCS(=O)(=O)C1)NP(=S)(Oc1ccccc1)Oc1ccccc1 (stereo not given),inactive: -0.924%
4,O=P1(N(CCCl)CCCl)OCCC2CCCCN21 (stereo not given),inactive: 0.27%
5,C[C@@H]1C=CCP(=O)(Oc2ccccc2)O1 (stereo not given in full),inactive: 5.48%
6,C[C@H]1OP(=O)(Oc2ccccc2)C[C@@H]2O[C@@H]21 (stereo not given in full),inactive: -0.156%
7,Cc1ccccc1CN(C)C(=O)COC(=O)C(O)(c1ccccc1)c1ccccc1,inactive: -11.6%
8,COC(=O)C1(C)COP(=O)(NCc2ccccc2)OC1 (stereo not given),inactive: 0.913%
9,N#C/C(=C\c1ccc(N(CCBr)CCBr)cc1)C(N)=O,inactive: -4.47%
10,CC(=O)c1ccc(N2CC2c2ccncc2)cc1 (stereo not given),inactive: -6.74%
11,CC(=O)Nc1ccc(Oc2c([N+](=O)[O-])cc([N+](=O)[O-])cc2[N+](=O)[O-])cc1,inactive: 2.94%
12,CC(=O)Nc1ccc([As](=O)(O)O)c(O)c1,inactive: -4.28%
13,CCOc1ccc(C2=NCC(CBr)S2)cc1 (stereo not given),inactive: 5.97%
14,O=P1(Nc2nc3ccc(Cl)cc3s2)COc2ccccc2O1 (stereo not given),inactive: 1.67%
15,CC(C)(C)C(=O)NC(Sc1ccccc1)C(Cl)(Cl)Cl (stereo not given),inactive: 1.07%
16,CCc1cc(O)c([N+](=O)[O-])c(C)c1[N+](=O)[O-],inactive: -1.57%
17,O=C(NC(Sc1ccncn1)C(Cl)(Cl)Cl)c1ccccc1 (stereo not given),inactive: -5.24%
18,Oc1ccccc1CNc1ccccn1,inactive: -2.66%
19,CC(C)CC(=O)NC(Sc1ccc(Cl)cc1)C(Cl)(Cl)Cl (stereo not given),inactive: -13.8%
20,Nc1cc(N)c2nonc2c1[N+](=O)[O-],inactive: -7.95%
21,Cc1ccc(N/C(=N/P(=O)(N2CCOCC2)N2CCOCC2)N2CCOCC2)cc1,inactive: -1.69%
